Measured values as given in patent US20230287003A1, “BCL6 INHIBITORS” (Cancer Research Technology Limited, priority 2018, published 2023).

Target: human BCL6 BTB domain (Trx-6×His-BCL6) / BCOR-AF633 peptide (Homo sapiens (Human), UniProt P41182)
Experiment: HTRF assay
Assay type: binding

Question: How did the “HTRF avg pIC50 (1 nM)” value turn out when `Cn1c(=O)c2c(c3cc(Nc4ccnc(Cl)c4C#N)ccc31)N[C@@H](C1CC1)CCO2` [Example 1d, (R)-2-chloro-4((2-cyclopropyl-7-methyl-6-oxo-1,2,3,4,6,7-hexahydro-[1,4]oxazepino[2,3-c]quinolin-10-yl)amino)nicotinonitrile] was run?
Answer: The value was 7.41.
